Measurements published in patent US20250179183A1 (BIOMOLECULAR, published 2025).

Biological target: T1, cynomolgus monkey CD64 (cynomolgus monkey, UniProt A0A2K5U901 33-309)
T1 construct: also called Cynomolgus FcγR CD64
Assay: immobilized cynomolgus FcgR (bivalent format)

Binder | fold vs MabThera [fold]
Tafasitamab (antibody, human IgG1, kappa, also called Tafasitamab-cxix; Tafasitamab-S239D/I332E) heavy: EVQLVESGGGLVKPGGSLKLSCAASGYTFTSYVMHWVRQAPGKGLEWIGYINPYNDGTKYNEKFQGRVTISSDKSISTAYMELSSLRSEDTAMYYCARGTYYYGTRVFDYWGQGTLVTVSSASTKGPSVFPLAPSSKSTSGGTAALGCLVKDYFPEPVTVSWNSGALTSGVHTFPAVLQSSGLYSLSSVVTVPSSSLGTQTYICNVNHKPSNTKVDKKVEPKSCDKTHTCPPCPAPELLGGPDVFLFPPKPKDTLMISRTPEVTCVVVDVSHEDPEVQFNWYVDGVEVHNAKTKPREEQFNSTFRVVSVLTVVHQDWLNGKEYKCKVSNKALPAPEEKTISKTKGQPREPQVYTLPPSREEMTKNQVSLTCLVKGFYPSDIAVEWESNGQPENNYKTTPPMLDSDGSFFLYSKLTVDKSRWQQGNVFSCSVMHEALHNHYTQKSLSLSPG light: not shown | 5.7
HB2198 (bispecific antibody, human IgG1, kappa, also called HB2198 (S239D/I332E)) heavy 1: QVQLVQSGGGVVQPGRSLRLSCAASGVSLPDYGVSWVRKAPGKGLEWVAVIWGSETTYYNSALKSRFTISRDNSKNTLYLQMSSLRAEDTAVYYCAKHYYYGGSFAMDYWGQGTLVTVSSASTKGPSVFPLAPSSKSTSGGTAALGCLVKDYFPEPVTVSWNSGALTSGVHTFPAVLQSSGLYSLESVVTVPSSSLGTQTYICNVNHKPSNTKVDKKVEPKSCTDWSPYADQSIKVRISLKSALGDKAYEWNDNEMYLFRSSVAYAMRQYFLKVKNQMILFGEEDVRVANLKPRISFNFFVTAPKNVSDIIPRTEVEKAIRMSRSRINDAFRLNDNSLEFLGIQPTLGPPNQPPVSTSTSPTRSMAPGAVHLPQPVSTRDKTHTCPPCPAPELLGGPDVFLFPPKPKDTLMISRTPEVTCVVVDVSHEDPEVKFNWYVDGVEVHNAKTKPREEQYNSTYRVVSVLTVLHQDWLNGKEYKCKVSNKALPAPEEKTISKAKGQPREPQVCTLPPSRDELTKNQVSLSCAVKGFYPSDIAVEWESNGQPENNYKTTPPVLDSDGSFFLVSKLTVDKSRWQQGNVFSCSVMHEALHNRFTQKSLSLSPG heavy 2: QIVLSQSPAILSASPGEKVTMTCRASSSVSYIHWFQKKPGSSPKPWIYATSNLASGVPVRFSGSGSGTSYSLTISRVEAEDAATYYCQQWTSNPPTFGGGTKVEIKSSASTKGPSVFPLAPSSKSTSGGTAALGCLVKDYFPEPVTVSWNSGALTSGVHTFPAVLQSSGLYSLKSVVTVPSSSLGTQTYICNVNHKPSNTKVDKKVEPKSCDKTHTCPPCPAPELLGGPDVFLFPPKPKDTLMISRTPEVTCVVVDVSHEDPEVKFNWYVDGVEVHNAKTKPREEQYNSTYRVVSVLTVLHQDWLNGKEYKCKVSNKALPAPEEKTISKAKGQPREPQVYTLPPCRDELTKNQVSLWCLVKGFYPSDIAVEWESNGQPENNYKTTPPVLDSDGSFFLYSKLTVDKSRWQQGNVFSCSVMHEALHNHYTQKSLSLSPG light 1: DIQMTQSPSSLSASVGDRVTITCRASQDISKYLNWYQEKPGKAIKLLIYHTSRLHSGVPSRFSGSGSGTDFTLTISSLQPEDFATYYCQQGATLPYTFGPGTKLEIKRTVAAPSVFIFPPSDEQLKSGTASVKCLLNNFYPREAKVQWKVDNALQSGNSQESVTEQDSKDSTYSLSSTLTLSKADYEKHKVYACEVTHQGLSSPVTKSFNRGEC light 2: QVQLQQPGAELVKPGASVKMSCKASGYTFTSYNMHWVKETPGRGLEWIGAIYPGNGDTSYNQKFKGKATLTADKSSSTAYMQLSSLTSEDSAVYYCARSTYYGGDWYFNVWGAGTLVTVSSASVAAPSVFIFPPSDEQLKSGTASVECLLNNFYPREAKVQWKVDNALQSGNSQESVTEQDSKDSTYSLSSTLTLSKADYEKHKVYACEVTHQGLSSPVTKSFNRGEC | > 515
